Biological target: D(2) dopamine receptor (Rattus norvegicus, UniProt P61169)
Experiment: Displacement of [3H]raclopride from rat dopamine D2 receptor

Chains of the proteins cited; added tags and fusions are not shown.
UniProt P61169, whole entry: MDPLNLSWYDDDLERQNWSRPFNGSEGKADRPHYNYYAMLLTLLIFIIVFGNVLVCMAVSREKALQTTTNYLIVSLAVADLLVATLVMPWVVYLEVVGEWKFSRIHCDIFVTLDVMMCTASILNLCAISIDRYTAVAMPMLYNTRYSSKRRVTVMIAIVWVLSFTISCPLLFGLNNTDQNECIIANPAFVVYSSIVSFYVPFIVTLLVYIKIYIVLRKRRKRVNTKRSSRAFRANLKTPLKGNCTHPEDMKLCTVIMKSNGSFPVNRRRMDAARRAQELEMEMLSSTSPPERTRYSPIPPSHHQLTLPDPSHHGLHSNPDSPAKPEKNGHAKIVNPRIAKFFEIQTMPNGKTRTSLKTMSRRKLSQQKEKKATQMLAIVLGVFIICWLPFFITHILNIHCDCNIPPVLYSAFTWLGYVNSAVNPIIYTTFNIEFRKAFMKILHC

For CN1CCc2cccc3c2[C@H]1Cc1ccc(O)c(O)c1-3 [APOMORPHINE], the Ki was 13 nM.

From ChEMBL document CHEMBL1141452, “Advances in development of dopaminergic aporphinoids” (J Med Chem, 2007)
